Measurements reported in patent US20110171160A1, “POLYMER CONJUGATES OF KISS1 PEPTIDES” (Nektar Therapeutics, priority 2008, published 2011).
Like-named read-outs stand apart in the source and are kept apart here. Values belong to the substance of their own block, whether it stands above or below them.

The chains behind the UniProt entries cited, without tags or fusion partners.
UniProt Q969F8, whole entry: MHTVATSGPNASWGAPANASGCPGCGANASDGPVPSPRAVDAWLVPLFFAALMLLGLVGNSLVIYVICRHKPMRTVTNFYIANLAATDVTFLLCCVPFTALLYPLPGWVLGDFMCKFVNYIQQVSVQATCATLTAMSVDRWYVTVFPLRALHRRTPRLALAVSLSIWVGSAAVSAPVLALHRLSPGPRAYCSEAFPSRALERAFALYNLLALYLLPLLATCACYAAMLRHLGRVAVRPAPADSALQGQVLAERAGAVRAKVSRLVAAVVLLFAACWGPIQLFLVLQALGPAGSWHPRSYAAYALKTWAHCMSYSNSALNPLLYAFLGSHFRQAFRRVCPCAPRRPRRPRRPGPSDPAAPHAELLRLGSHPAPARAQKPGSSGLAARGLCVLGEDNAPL

Biological target: T1, human GPR54 (Homo sapiens, UniProt Q969F8)
T1 construct: host or cells: Chem-1 host cells, with the promiscuous G protein Galpha15 (Gal 5 [sic])
Experiment: FLIPR calcium flux agonist assay on GPR54-expressing Chem-1 cell line
Type: cell-based
Conditions: for EC50 (nM) of agonist activation at GPR54: time of release n/a (no release incubation); for EC50: HEPES buffer pH 7, 37° C., read-out: EC50 (nM) of agonist activation at GPR54
Method: A FLIPR assay was conducted to screen Kisspeptin and PEG-Kisspeptin peptides for dose-dependent agonist activities on the GP[…]-Protein coupled receptor. […] All compounds were diluted in their storage solvents to produce 250× (of the top dose listed below) master stock solutions. Compounds were then transferred from their master stock solutions into a daughter plate that was used in the assay. Each 250× solution was diluted into assay buffer (1×HBSS with 20 mM HEPES and 2.5 mM Probenecid) to obtain the final top test concentration. Calcium flux agonist assay: Chemicon's cloned human GPR54-expressing cell line is made in the Chem-1 host, which supports high levels of recombinant GPR54 expression on the cell surface and contains high levels of the promiscuous G protein Gal 5 to couple the receptor to the calcium signaling pathway. […] Reference agonist was handled as mentioned above, serving as assay control. Assay was read for 180 seconds using the FLIPR^TETRA. All plates were subjected to appropriate baseline corrections. Once baseline corrections were processed, maximum fluorescence values were exported and data manipulated to calculate percentage activation and Z'. Dose response curves were generated using GraphPad Prism. The curves were fit by utilizing sigmoidal dose response (variable slope) fitting with the bottom parameter fixed at 0 (FIGS.

- EC50 (nM) of agonist activation at GPR54: No activity
Substance: Ald10K-KP10: Kisspeptin-10 mono-PEGylated with mPEG-ButyrALD10K by reductive amination (stable conjugate)

- EC50 (nM) of agonist activation at GPR54: No activity
Substance: Ald30K-KP10: Kisspeptin-10 mono-PEGylated with mPEG-butyrALD30K by reductive amination (stable conjugate)

- Fold change compared to metastin (time of release 0 h): 155 fold
- EC50 (time of release 0 h, listed as CAC-40K Kisspeptin 10): 1600 nM
- EC50 (time of release 0 h): 1700 nM
- Fold change compared to metastin (time of release 24 h): 9 fold
- EC50 (time of release 24 h): 120 nM
- Fold change compared to metastin (time of release 48 h): 6 fold
- EC50 (time of release 48 h): 74 nM
- Fold change compared to metastin (time of release 96 h): 4 fold
- EC50 (time of release 96 h): 47 nM
Substance: CAC-40K-KP10: Kisspeptin-10 mono-PEGylated with mPEG2-CAC-FMOC-NHS-40K (releasable conjugate)

- Fold change compared to metastin (time of release 0 h): 23 fold
- EC50 (time of release 0 h): 280 nM
- Fold change compared to metastin (time of release 0 h, listed as SBC-30K Kisspeptin 10): about 23 fold
- Fold change compared to metastin (time of release 2 h): ~17 fold
- EC50 (time of release 2 h): 200 nM
Substance: SBC-30K-KP10: Kisspeptin-10 mono-PEGylated with N-m-PEG-Benzamide-p-Succinimidyl Carbonate (SBC)-30K (releasable conjugate)
